The results in this text go back to paper PMC4423116, “Tarantula toxins use common surfaces for interacting with Kv and ASIC ion channels” (eLife, 2015).

Molecules are shown by their SMILES.

Data set [1] deals with T1, Kv2.1 channel (Rattus norvegicus, UniProt P15387).
T1 construct: expressed in transfected cells; host or cells: Xenopus laevis oocytes, cRNA injection
T1 sequence (P15387 1-857): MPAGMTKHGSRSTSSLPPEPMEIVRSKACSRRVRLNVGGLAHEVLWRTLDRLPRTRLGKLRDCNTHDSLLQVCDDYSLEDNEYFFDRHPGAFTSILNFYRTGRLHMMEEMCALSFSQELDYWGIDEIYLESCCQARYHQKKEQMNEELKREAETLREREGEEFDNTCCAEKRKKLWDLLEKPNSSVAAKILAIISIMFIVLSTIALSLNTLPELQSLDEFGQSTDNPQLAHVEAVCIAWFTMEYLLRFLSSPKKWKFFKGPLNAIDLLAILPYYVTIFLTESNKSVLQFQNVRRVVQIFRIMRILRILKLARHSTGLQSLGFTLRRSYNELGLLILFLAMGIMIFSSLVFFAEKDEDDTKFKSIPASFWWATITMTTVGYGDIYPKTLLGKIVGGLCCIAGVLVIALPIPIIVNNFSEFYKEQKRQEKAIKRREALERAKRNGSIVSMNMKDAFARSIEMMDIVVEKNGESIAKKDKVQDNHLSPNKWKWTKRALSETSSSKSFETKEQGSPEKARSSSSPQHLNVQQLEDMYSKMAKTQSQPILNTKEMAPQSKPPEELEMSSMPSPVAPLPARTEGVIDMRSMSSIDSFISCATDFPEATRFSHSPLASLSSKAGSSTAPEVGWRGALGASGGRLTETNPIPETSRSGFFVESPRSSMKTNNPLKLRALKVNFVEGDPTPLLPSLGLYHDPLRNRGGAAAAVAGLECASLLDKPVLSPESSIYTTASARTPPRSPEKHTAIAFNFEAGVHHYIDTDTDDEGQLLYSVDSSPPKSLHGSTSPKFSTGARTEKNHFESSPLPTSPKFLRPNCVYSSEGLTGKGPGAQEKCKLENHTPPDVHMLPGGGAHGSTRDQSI
The data set is described as follows: Inhibition of Kv2.1 channel currents in Xenopus oocytes (two-electrode voltage clamp), apparent affinity. The following applies: Kv2.1 in oocytes; for ∆∆G (perturbation energy): from apparent Kd of mutant vs GxTx-1E(Nle). The class given is cell-based. (Two-electrode voltage clamp is typically applied to oocytes expressing channels or transporters.)

Data set [2] can be described thus: Membrane partitioning into lipid vesicles detected with intrinsic Trp fluorescence (blue shift). The class given is physicochemical. The following applies: ∼2 µM toxin, pH 7.6, 25°C; for Kx (mole fraction partition coefficient): Trp fluorescence intensity at 320 nm vs available lipid (60% of total), LUVs POPC:POPG 1:1, 100 nm, 10 mM HEPES, 1 mM EDTA, excitation 280 nm, mean ± SEM (n = 3); for F/F0^max (partition function fit, 320 nm): maximum fluorescence increase at high lipid concentration, LUVs POPC:POPG 1:1. How it is done: Large unilamellar vesicles (LUVs) were prepared by drying the phospholipids from a chloroform solution under a nitrogen stream. The dried lipid film was rehydrated in buffer containing 10 mM HEPES, 1 mM EDTA, pH 7.6 (HEB). The resulting dispersions were extruded through 100 nm pore size polycarbonate filters (Millipore Corp.) till the solution became clear. All fluorescence measurements were performed in quartz cuvettes with 1 cm path length. Fluorescence spectra (averaging three spectra) were recorded between 300 and 450 nm (5 nm band pass, 0° polarizer) using an excitation wavelength of 280 nm (5 nm band pass, 90° polarizer) (SPEX FluoroMax 3 spectrofluorometer) and corrected for vesicle scattering. For lipid partitioning experiments, LUVs composed of a mix of 1:1 molar ratios of POPC (1-palmitoyl-2-oleoyl-sn-glycero-3-phosphocholine) and POPG (1-palmitoyl-2-oleoyl-sn-glycero-3-[phospho-rac-(1-glycerol)]) were added to a solution of toxin (∼2 μM final concentration), maintained at 25°C with continuous stirring in a total volume of 2 ml. Mole-fraction partitioning coefficients (Kx) were calculated by measuring the fluorescence intensity (F) at 320 nm and normalizing to the zero lipid fluorescence intensity (F0) ([Ladokhin et al., 2000]; [Milescu et al., 2007]). Kx was calculated based on the best fits of the following equation to the data: F/F0(L) = 1 + (F/F0^max − 1)Kx[L]/([W] + Kx[L]), where F/F0(L) is the change in fluorescence intensity for a given concentration of lipid, F/F0^max is the maximum fluorescence increase at high lipid concentrations, [L] is the average available lipid concentration (60% of total lipid concentration) and [W] is the molar concentration of water (55.3 M).

Data set [3] is described as follows: Acrylamide quenching of Trp fluorescence (Stern-Volmer), protection by lipid vesicles. The note with it: n = 3. The class given is physicochemical. How it is done:
(§1) Protection of tryptophan fluorescence from acrylamide quenching was examined in the absence and presence of lipids (toxin: lipid = 1:500) by titration with increasing concentrations of acrylamide ([Milescu et al., 2007]). The Stern–Volmer quenching constant (KSV) was calculated based on the best fits of the following equation to the data: F0/F = 1 + KSV[Q], where F0 and F are fluorescence of the toxin in the absence and presence of acrylamide, and [Q] is the concentration of acrylamide. […] A solution containing ∼ 2 µM toxin and 0.3 M acrylamide was stirred continuously with addition of increasing concentrations of LUVs composed of 1:1 mixture of POPC and POPG. Fluorescence spectra (averaging three spectra) were recorded between 300 and 450 nm (5 nm band pass, 0° polarizer) using an excitation wavelength of 280 nm (5 nm band pass, 90° polarizer) (SPEX FluoroMax 3 spectrofluorometer) and corrected for vesicle scattering. For calculating mole–fraction partitioning coefficients (Kdx), the maximal fluorescence intensity (F at λmax) was measured and normalized to the zero lipid fluorescence intensity (F0). […]

Data set [4] is described as follows: Acrylamide dequenching by lipid vesicles (quenching-enhanced fluorescence titration). It is filed as physicochemical. The note with it: LUVs POPC:POPG 1:1. How it is done: as §1
A short description of data set [5]: Depth-dependent quenching of Trp fluorescence by brominated (diBr) phosphatidylcholines. It is filed as physicochemical. The note with it: 6,7-, 9,10- or 11,12-diBr PC : POPG 1:1 vesicles, 1.2 mM lipid. How it is done:
For depth-dependent fluorescence quenching experiments with brominated lipids, LUVs contained a 1:1 molar ratio of POPG and POPC 6,7-, 9,10-, or 11,12-1-palmitoyl-2-stearoyl(dibromo)-sn-glycero-3-phosphocholine (diBr; Avanti Polar Lipids, Alabaster, AL). Fluorescence spectra were recorded between 300 and 450 nm using an excitation wavelength of 280 nm, corrected for vesicle scattering and normalized to the zero lipid fluorescence intensity.

Take `CCCC[C@H](NC(=O)[C@@H]1CCCN1C(=O)[C@H](Cc1ccccc1)NC(=O)[C@H](CC(N)=O)NC(=O)[C@@H]1CSSC[C@@H]2NC(=O)[C@H](C)NC(=O)[C@@H]3CCCN3C(=O)[C@H](CCCCN)NC(=O)CNC(=O)[C@H](CO)NC(=O)CNC(=O)[C@@H]3CSSC[C@H](NC(=O)[C@H](C(C)C)NC(=O)[C@H](Cc4ccc(O)cc4)NC(=O)[C@H](CCCCN)NC(=O)[C@@H]4CCCN4C(=O)[C@H](CSSC[C@H](NC(=O)[C@H](CCC(=O)O)NC(=O)CNC(=O)[C@@H](N)CCC(=O)O)C(=O)NCC(=O)NCC(=O)N[C@@H](Cc4ccccc4)C(=O)N[C@@H](C)C(=O)N[C@@H](Cc4c[nH]c5ccccc45)C(=O)N[C@@H](CCCCN)C(=O)N3)NC2=O)C(=O)N[C@@H](CO)C(=O)N2CCC[C@H]2C(=O)N[C@@H](CCCCN)C(=O)N[C@@H](Cc2c[nH]c3ccccc23)C(=O)NCC(=O)N[C@@H](CC(C)C)C(=O)N1)C(=O)N1CCC[C@H]1C(=O)O` [Toxin W8A]: the “∆∆G (perturbation energy)” value in data set [1] worked out at 2.23 kcal/mol. In addition, in data set [2], the “Kx (mole fraction partition coefficient)” value is given as “(1.3 ± 0.2) × 10^6” and the “F/F0^max (partition function fit, 320 nm)” value is 1.8 ± 0.01.
`CCCC[C@H](NC(=O)[C@@H]1CCCN1C(=O)[C@H](Cc1ccccc1)NC(=O)[C@H](CC(N)=O)NC(=O)[C@@H]1CSSC[C@@H]2NC(=O)[C@H](C)NC(=O)[C@@H]3CCCN3C(=O)[C@H](CCCCN)NC(=O)CNC(=O)[C@H](CO)NC(=O)CNC(=O)[C@@H]3CSSC[C@H](NC(=O)[C@H](C(C)C)NC(=O)[C@H](Cc4ccc(O)cc4)NC(=O)[C@H](CCCCN)NC(=O)[C@@H]4CCCN4C(=O)[C@H](CSSC[C@H](NC(=O)[C@H](CCC(=O)O)NC(=O)CNC(=O)[C@@H](N)CCC(=O)O)C(=O)NCC(=O)NCC(=O)N[C@@H](Cc4ccccc4)C(=O)N[C@@H](Cc4c[nH]c5ccccc45)C(=O)N[C@@H](Cc4c[nH]c5ccccc45)C(=O)N[C@@H](CCCCN)C(=O)N3)NC2=O)C(=O)N[C@@H](CO)C(=O)N2CCC[C@H]2C(=O)N[C@@H](CCCCN)C(=O)N[C@@H](C)C(=O)NCC(=O)N[C@@H](CC(C)C)C(=O)N1)C(=O)N1CCC[C@H]1C(=O)O` [Toxin W28A]: the “∆∆G (perturbation energy)” value in data set [1] is 3.14 kcal/mol. Besides, in data set [1] (ratio of apparent Kd of mutant to GxTx-1E(Nle)), the “Kd^mut/Kd^wt” value came to 197.7. In data set [2], the “Kx (mole fraction partition coefficient)” value was “(5.5 ± 0.9) × 10^6” and the “F/F0^max (partition function fit, 320 nm)” value was determined as 1.5 ± 0.01.
Take `CCCC[C@H](NC(=O)[C@@H]1CCCN1C(=O)[C@H](Cc1ccccc1)NC(=O)[C@H](CC(N)=O)NC(=O)[C@@H]1CSSC[C@@H]2NC(=O)[C@H](C)NC(=O)[C@@H]3CCCN3C(=O)[C@H](CCCCN)NC(=O)CNC(=O)[C@H](CO)NC(=O)CNC(=O)[C@@H]3CSSC[C@H](NC(=O)[C@H](C(C)C)NC(=O)[C@H](Cc4ccc(O)cc4)NC(=O)[C@H](CCCCN)NC(=O)[C@@H]4CCCN4C(=O)[C@H](CSSC[C@H](NC(=O)[C@H](CCC(=O)O)NC(=O)CNC(=O)[C@@H](N)CCC(=O)O)C(=O)NCC(=O)NCC(=O)N[C@@H](Cc4ccccc4)C(=O)N[C@@H](Cc4c[nH]c5ccccc45)C(=O)N[C@@H](Cc4c[nH]c5ccccc45)C(=O)N[C@@H](CCCCN)C(=O)N3)NC2=O)C(=O)N[C@@H](CO)C(=O)N2CCC[C@H]2C(=O)N[C@@H](CCCCN)C(=O)N[C@@H](Cc2c[nH]c3ccccc23)C(=O)NCC(=O)N[C@@H](CC(C)C)C(=O)N1)C(=O)N1CCC[C@H]1C(=O)O` [GxTx-1E(Nle)]: in data set [2], the “Kx (mole fraction partition coefficient)” value was “(4.6 ± 0.8) × 10^6” and the “F/F0^max (partition function fit, 320 nm)” value came out at 2.3 ± 0.05. Further, in data set [2] (listed as GxTx-1E), the “Kx (mole fraction partition coefficient)” value is given as 4.6 ± 0.8 × 10^6. In addition, the “Ksv (Stern–Volmer constant), acrylamide quenching in aqueous solution” value in data set [3] (toxin ∼2 µM in solution, no lipid) was determined as 37.7 M⁻¹. Further, in data set [3] (toxin ∼2 µM with 1.0 mM POPC:POPG 1:1 vesicles (toxin:lipid 1:500)), the “Ksv (Stern–Volmer constant), acrylamide quenching in presence of lipid vesicles” value is 9.1 M⁻¹. Moreover, the “Kdx (mole-fraction partitioning coefficient from acrylamide dequenching)” value in data set [4] (maximal fluorescence intensity vs available lipid, ∼2 µM toxin, acrylamide 0.2 M / 0.3 M (methods), mean ± SEM (n = 3)) is reported as “(1.1 ± 0.2) × 10^7”. Also, in data set [4] (maximum fluorescence increase at highest lipid concentration, acrylamide present), the “F/F0^max (dequenching function fit)” value stood at 3.5 ± 0.02. The “quenching of Trp fluorescence by brominated lipids (in words)” value in data set [5] is reported as “strong quenching”.
Take `CCCC[C@H](NC(=O)[C@@H]1CCCN1C(=O)[C@H](Cc1ccccc1)NC(=O)[C@H](CC(N)=O)NC(=O)[C@@H]1CSSC[C@@H]2NC(=O)[C@H](C)NC(=O)[C@@H]3CCCN3C(=O)[C@H](CCCCN)NC(=O)CNC(=O)[C@H](CO)NC(=O)CNC(=O)[C@@H]3CSSC[C@H](NC(=O)[C@H](C(C)C)NC(=O)[C@H](Cc4ccc(O)cc4)NC(=O)[C@H](CCCCN)NC(=O)[C@@H]4CCCN4C(=O)[C@H](CSSC[C@H](NC(=O)[C@H](CCC(=O)O)NC(=O)CNC(=O)[C@@H](N)CCC(=O)O)C(=O)NCC(=O)NCC(=O)N[C@@H](Cc4ccccc4)C(=O)N[C@@H](Cc4c[nH]c5ccccc45)C(=O)N[C@@H](C)C(=O)N[C@@H](CCCCN)C(=O)N3)NC2=O)C(=O)N[C@@H](CO)C(=O)N2CCC[C@H]2C(=O)N[C@@H](CCCCN)C(=O)N[C@@H](Cc2c[nH]c3ccccc23)C(=O)NCC(=O)N[C@@H](CC(C)C)C(=O)N1)C(=O)N1CCC[C@H]1C(=O)O` [Toxin W9A]: in data set [1], the “∆∆G (perturbation energy)” value stood at 1.93 kcal/mol. In data set [2], the “Kx (mole fraction partition coefficient)” value was “(7.6 ± 1.5) × 10^6” and the “F/F0^max (partition function fit, 320 nm)” value is on record as 2.5 ± 0.05.
